# How the values were obtained:
# [1] = target: Unmodified nucleosome core particle (X. laevis histone octamer on 147 bp Widom-601 DNA) (X. laevis); test: native gel or EMSA
# [2] = target: Unmodified nucleosome core particle (X. laevis histone octamer on 147 bp Widom-601 DNA) (X. laevis); test: crystal structure
# [3] = target: H4K16Q (acetyl mimic) nucleosome (X. laevis); test: native gel or EMSA
# [4] = target: H4K16ac nucleosome (X. laevis | not stated); test: native gel or EMSA
substance,measurement,setting,value
Orc1 BAH L79I mutant (from UniProt P54784 1-214) (domain or fragment),fold increase in affinity compared with the WT domain,[1],2.8 fold
same,stoichiometry N,[2],2
Orc1 BAH Lid swap mutant (residues 60–63 NEAA replaced with Sir3 DNVT) (from UniProt P54784 1-214) (domain or fragment),fold decrease in affinity compared with binding to unmodified nucleosome,[3],2 fold
Sir3 BAH D205N hypermorphic mutant (from UniProt P06701 1-214) (domain or fragment),fold increase in affinity relative to H4K16ac nucleosomes,[1],3.7 fold
Sir3 D205Q with Orc1-swapped residues in the Lid of Loop 2 (from UniProt P06701 1-214) (domain or fragment),fold difference in affinity compared with unmodified nucleosome,[4],1.7 fold
